Series [1] concerns Hippocampus. The experiment in a line: Toxicity in Sprague-Dawley rat hippocampal slice at 10 uM measured after 1 hr by electrophysiological assay. The conditions noted are these: in vivo, strain Sprague-Dawley.
Series [2] deals with Hippocampus. The experiment in a line: Neuroprotective activity in Sprague-Dawley rat hippocampal slice assessed as reversal of DFP-induced damage at 10 uM measured after 2 hrs by electrophysiological assay. As to conditions: strain Sprague-Dawley.

Consider `C/C1=C\CC/C(CO)=C/[C@H](O)C[C@@](C)(O)/C=C/[C@H](C(C)C)CC1`, for which the values for the Activity result in the series with Hippocampus [1] and with Hippocampus [2] were “Toxic” and 75%, respectively.

The record behind these values is ChEMBL document CHEMBL2407019, “Protective activity of (1S,2E,4R,6R,7E,11E)-2,7,11-cembratriene-4,6-diol analogues against diisopropylfluorophosphate neurotoxicity: preliminary structure-activity relationship and pharmacophore modeling” (2013).
